The assay addresses Serine/threonine-protein kinase pim-2 (Homo sapiens, UniProt Q9P1W9).

Protein sequences, listed by entry. Tags and fused reporters are not part of them. Lines headed by an entry give the natural chain unless they say otherwise; changes in a name come on top.
UniProt Q9P1W9: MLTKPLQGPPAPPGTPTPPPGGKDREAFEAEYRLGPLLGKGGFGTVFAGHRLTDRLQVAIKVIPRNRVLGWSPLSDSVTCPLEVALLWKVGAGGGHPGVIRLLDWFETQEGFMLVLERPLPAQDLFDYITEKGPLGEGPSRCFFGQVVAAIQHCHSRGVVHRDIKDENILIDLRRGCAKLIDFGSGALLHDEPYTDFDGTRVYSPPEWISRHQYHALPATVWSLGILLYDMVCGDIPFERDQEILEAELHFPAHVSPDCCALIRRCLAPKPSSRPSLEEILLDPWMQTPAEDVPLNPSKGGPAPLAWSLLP

Structures are written as SMILES.

From ChEMBL document CHEMBL5532678, “Comprehensive Insights that Targeting PIM for Cancer Therapy: Prospects and Obstacles” (J Med Chem, 2024) come the findings set out here.

In turn, `CN1CCC(CNc2ccc3ncc(-c4cccc(OC(F)(F)F)c4)n3n2)CC1` [SGI-1776] had a 50% inhibitory concentration (IC50) of 0.0363 µM. That is a double-digit nanomolar value.

Broadly, the IC50 is the concentration at which inhibition is half-maximal. Higher therefore signals lower potency.
